Data: patent US11357834B2, “Recombinant α-galactosidase A for treatment of Fabry disease” (Amicus Therapeutics, Inc., priority 2017, dated 2022)

Amino acid sequences for entries named in this document (tags omitted). Residues count along the entry.
UniProt P11717, 41-2491, species assumed: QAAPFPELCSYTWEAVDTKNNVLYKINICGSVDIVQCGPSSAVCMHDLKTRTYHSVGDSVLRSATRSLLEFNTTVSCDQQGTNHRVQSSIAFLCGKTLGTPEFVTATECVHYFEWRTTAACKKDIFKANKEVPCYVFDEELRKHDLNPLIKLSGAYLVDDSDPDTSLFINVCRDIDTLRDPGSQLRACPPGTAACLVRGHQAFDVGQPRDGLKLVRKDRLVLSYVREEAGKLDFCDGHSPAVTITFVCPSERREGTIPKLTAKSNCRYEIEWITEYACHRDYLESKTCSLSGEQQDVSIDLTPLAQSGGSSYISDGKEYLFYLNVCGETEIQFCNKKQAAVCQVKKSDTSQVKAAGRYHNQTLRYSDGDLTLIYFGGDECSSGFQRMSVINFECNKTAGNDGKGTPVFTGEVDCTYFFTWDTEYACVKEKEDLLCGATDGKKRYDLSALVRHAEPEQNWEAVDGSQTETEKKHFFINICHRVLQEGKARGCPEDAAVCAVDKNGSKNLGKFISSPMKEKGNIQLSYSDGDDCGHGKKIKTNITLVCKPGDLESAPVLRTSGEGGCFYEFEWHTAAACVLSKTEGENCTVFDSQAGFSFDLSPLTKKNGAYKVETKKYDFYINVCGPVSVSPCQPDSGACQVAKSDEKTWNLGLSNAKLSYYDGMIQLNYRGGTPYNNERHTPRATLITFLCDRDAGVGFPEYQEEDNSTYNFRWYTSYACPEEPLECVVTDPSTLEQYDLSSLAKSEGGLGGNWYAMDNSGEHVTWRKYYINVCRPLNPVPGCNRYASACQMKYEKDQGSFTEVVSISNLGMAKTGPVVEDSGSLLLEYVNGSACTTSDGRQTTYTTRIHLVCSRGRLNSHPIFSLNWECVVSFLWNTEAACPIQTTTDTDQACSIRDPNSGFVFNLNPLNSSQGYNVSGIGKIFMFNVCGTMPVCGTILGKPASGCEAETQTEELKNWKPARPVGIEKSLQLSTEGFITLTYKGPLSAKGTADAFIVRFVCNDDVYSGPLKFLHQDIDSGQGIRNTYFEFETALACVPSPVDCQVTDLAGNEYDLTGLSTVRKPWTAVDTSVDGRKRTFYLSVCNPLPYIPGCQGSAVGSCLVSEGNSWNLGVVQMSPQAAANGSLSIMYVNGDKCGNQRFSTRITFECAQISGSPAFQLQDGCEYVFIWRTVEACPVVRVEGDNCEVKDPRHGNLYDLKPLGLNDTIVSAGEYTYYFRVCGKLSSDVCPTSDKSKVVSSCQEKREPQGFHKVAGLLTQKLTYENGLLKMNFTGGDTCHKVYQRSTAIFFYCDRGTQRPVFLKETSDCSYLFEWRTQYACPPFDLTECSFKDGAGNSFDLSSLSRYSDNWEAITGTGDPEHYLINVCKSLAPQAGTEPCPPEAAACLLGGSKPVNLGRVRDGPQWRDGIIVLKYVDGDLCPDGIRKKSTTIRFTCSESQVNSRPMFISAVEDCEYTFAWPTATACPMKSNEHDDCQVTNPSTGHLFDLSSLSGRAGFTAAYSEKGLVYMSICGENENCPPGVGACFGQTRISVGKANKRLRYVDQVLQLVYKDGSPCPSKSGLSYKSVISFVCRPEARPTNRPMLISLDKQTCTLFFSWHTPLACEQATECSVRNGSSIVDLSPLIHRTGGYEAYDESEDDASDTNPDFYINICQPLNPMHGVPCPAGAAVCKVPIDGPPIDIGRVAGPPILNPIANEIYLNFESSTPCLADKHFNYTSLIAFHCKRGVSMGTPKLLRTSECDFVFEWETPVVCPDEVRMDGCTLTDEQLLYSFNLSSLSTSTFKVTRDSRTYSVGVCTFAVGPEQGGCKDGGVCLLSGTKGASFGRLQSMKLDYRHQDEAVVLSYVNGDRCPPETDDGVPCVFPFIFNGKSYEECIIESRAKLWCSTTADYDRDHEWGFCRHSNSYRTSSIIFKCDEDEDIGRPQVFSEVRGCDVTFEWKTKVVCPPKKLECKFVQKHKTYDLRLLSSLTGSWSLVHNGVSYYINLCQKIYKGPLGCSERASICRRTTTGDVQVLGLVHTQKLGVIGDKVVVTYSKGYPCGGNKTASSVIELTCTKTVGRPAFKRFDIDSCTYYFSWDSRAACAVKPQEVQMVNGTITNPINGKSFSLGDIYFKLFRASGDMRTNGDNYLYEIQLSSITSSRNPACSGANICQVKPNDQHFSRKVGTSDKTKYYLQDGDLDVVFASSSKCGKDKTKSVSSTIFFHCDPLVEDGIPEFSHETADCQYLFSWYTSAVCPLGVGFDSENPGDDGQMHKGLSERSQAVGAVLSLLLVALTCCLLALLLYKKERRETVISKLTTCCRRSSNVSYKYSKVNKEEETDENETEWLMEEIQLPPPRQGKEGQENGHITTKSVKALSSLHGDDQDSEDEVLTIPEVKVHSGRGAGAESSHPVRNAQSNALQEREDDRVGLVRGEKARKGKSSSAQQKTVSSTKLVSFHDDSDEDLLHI

Assays:
CIMPR = CIMPR (Homo sapiens, UniProt P11717); assay: Immobilized CIMPR affinity column binding, elution with free M6P; settings: rhα-Gal A clones produced by perfusion culture
Text: Purification on AEX columns selects for phosphorylated/sialylated enzyme with low content of neutral glycans, if molecules with such characteristics are present in the cell culture supernatant. The binding to the CIMPR can be assessed by binding the enzyme preparation to immobilized CIMPR followed by elution with increasing concentrations of M6P.
A desirable product attribute is high binding to the CIMPR. Binding to CIMPR presents a pathway for enzyme uptake into the lysosome which represents a major reservoir of accumulated substrate. The ability of the enzyme candidates to bind in vivo to the correct receptor for internalization was estimated by applying the cell supernatant from each pool to a CIMPR column (FIGS. 6A-6F). […] Increasing concentrations of free M6P from 0 to 1 mM, followed by a step to 5 mM, were passed over the column to elute the bound enzyme. The degree of CIMPR binding for the cell pools ranged from 37% to 52% (as measured by activity). Pools 1 and 4 had the highest CIMPR binding with 52% with pool 2 slightly less at 51%. Thus, these pools had more favorable CIMPR binding characteristics than the other pools at the same time point during culturing.
The ability of recombinant α-galactosidase A to bind to a CIMPR column in vitro is an indicator of that recombinant enzyme's ability to bind to the receptor in vivo and target the lysosomes. Two clones of rhα-Gal A (clone 01-003 and clone 04-023) were produced by perfusion culture and the binding was determined by passing each enzyme over an immobilized CIMPR affinity column (FIG. 7), as described above. FIGS. 7A-7C illustrate that 90% of Fabrazyme (agalsidase beta) bound to the CIMPR column, 80% of rhα-Gal A (01-003), and 96% of rhα-Gal A (04-023) bound the CIMPR column. FIGS. 7D-7F illustrate how the expression and purification can be varied to generate molecules that have higher binding affinity for the CIMPR column.

[1] = N-glycan profile (HPLC of 2AA labeled glycans or LC/MS/MS); assay type: physicochemical; settings: normal-phase LC of 2-anthranilic acid derivatives, elution 15-30 mins
Description: The glycan profiles of enzymes produced by both clones were analyzed in order to elaborate on in vitro and in vivo characteristics that could affect clinical efficacy. Glycans from protein samples of each α-Gal A were removed by peptide N-glycosidase F (PNGase) under standard denaturing and reducing conditions. The extent of deglycosylation was assessed on SDS-PAGE with the protein displaying a shift to lower apparent molecular weight upon deglycosylation (FIG. 9). Following release of the glycans from the protein backbone, the glycans are reacted with anthranilic acid to form 2-anthranilic acid derivatives, which are then separated by normal-phase chromatography on an amino column.
Normal phase liquid chromatography on amino columns is a valuable technique to compare the relative abundance of all glycan forms. The retention time is influenced by charge density and overall oligosaccharide size. Glycans eluting between 15-30 minutes are neutral glycan consisting of high-mannose and asialyo-complex oligosaccharides.
A detailed comparison of the glycans for Replagal (agalsidase alfa), Fabrazyme (agalsidase beta), rhα-Gal A 04-023 and rhα-Gal A 01-003 is provided in Tables 2-4 below. Table 2 provides a summary of a monosaccharide analysis, Table 3 provide a summary of the glycan “families”, and Table 4 provides a summary of the glycan structures. […]

Substance | bound to the CIMPR column (CIMPR) | Neutral glycans, share of the total glycans (FIG. 10) [1]
rhα-Gal A 01-003: recombinant human α-galactosidase A produced by CHO cell clone 01-003 | 80% | 
Fabrazyme: homodimeric recombinant human α-Gal A marketed by Genzyme under the name Fabrazyme [reference compound] | 90% | ~13%
rhα-Gal A 04-023: recombinant human α-galactosidase A produced by CHO cell clone 04-023 | 96% | 
